# Like-named read-outs stand apart in the source and are kept apart here.
# By UniProt entry, the sequences of proteins in these tests, tags left out.
# UniProt O00519, whole entry: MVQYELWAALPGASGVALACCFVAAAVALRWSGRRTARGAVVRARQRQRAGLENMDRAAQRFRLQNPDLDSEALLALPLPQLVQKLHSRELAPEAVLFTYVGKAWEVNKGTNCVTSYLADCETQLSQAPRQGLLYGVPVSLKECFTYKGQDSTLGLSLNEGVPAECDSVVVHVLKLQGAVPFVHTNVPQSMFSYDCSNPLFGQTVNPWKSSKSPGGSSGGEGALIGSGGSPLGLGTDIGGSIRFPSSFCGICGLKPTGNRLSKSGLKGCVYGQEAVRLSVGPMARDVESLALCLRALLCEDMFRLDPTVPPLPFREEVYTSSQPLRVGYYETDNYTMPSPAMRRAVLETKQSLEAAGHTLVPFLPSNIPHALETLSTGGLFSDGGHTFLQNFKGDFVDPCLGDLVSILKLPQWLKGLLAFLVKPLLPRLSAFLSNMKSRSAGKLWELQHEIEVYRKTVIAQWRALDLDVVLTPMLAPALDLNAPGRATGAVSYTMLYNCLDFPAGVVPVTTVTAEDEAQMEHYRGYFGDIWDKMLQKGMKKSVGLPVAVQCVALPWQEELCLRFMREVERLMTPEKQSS
# Biological target: FAAH (Homo sapiens, UniProt O00519)
# Assay: FAAH enzyme assay, lysate of CHO cells expressing human FAAH
# Excerpt: To assist in assay development stable cell lines for human, murine and rat full length FAAH were developed. Human FAAH cDNA (Accession No: NM_001441.1) was purchased from Origene (Rockville, Md.). The full length FAAH was subcloned into the mammalian expression vector, pcDEF.neo, using XbaI and […] restriction sites and used for stable cell line generation.
# CHO cells expressing FAAH were used to prepare either crude cell lysate or microsome fractions. To harvest cells, tissue culture media was decanted, the monolayer washed three times with Ca^++Mg^++ free PBS and cells recovered after 15 min in enzyme free dissociation media (Millipore Corp, Billerica, Mass.). Cells were collected by centrifuging at 2000 rpm for 15 min. and the cell pellet re-suspended with 50 mM HEPES (pH 7.4) containing 1 mM EDTA and the protease inhibitors aprotinin (1 mg/ml) and leupeptin (100 μM). […]
# (American Radiolabeled Chemicals; 1 mCi/ml) with FAAH (Life Sciences (1995), 56, 1999-2005 and Journal of Pharmacology and Experimented Therapeutics (1997), 283, 729-734), Analytical. […] In addition, routine assays were performed monitoring hydrolysis of arachidonyl-7-amino-4-methylcoumarin amide (AAMCA) by following increase in fluorescence upon release of 7-amino 4-methyl coumarin (λEX=355 nm, (λEM=460 nm). Analytical. Biochemistry (2005). 343, 143-51. […]
smiles,measurement,setting,value
CC(C)(O)c1cnc(-c2nn(-c3ccc(F)cc3)cc2SC2CCCCC2)cn1,IC50,"read-out: Human Lysate, CHO cell lysate",472 nM
Cn1cc(-n2cc(Sc3ccc(Cl)cn3)c(-c3ccc4c(c3)CCNC4=O)n2)cn1,IC50,"read-out: FAAH Human Cell Lysate IC50, cell lysate",310 nM
